# In patent US20020183362A1, “2-Fluorobenzenesulfonyl compounds for the treatment of inflammation” (Pharmacia Corporation, priority 2000, published 2002):
# The chains behind the UniProt entries cited, without tags or fusion partners. Residues count along the entry.
# UniProt P23219, 24-599: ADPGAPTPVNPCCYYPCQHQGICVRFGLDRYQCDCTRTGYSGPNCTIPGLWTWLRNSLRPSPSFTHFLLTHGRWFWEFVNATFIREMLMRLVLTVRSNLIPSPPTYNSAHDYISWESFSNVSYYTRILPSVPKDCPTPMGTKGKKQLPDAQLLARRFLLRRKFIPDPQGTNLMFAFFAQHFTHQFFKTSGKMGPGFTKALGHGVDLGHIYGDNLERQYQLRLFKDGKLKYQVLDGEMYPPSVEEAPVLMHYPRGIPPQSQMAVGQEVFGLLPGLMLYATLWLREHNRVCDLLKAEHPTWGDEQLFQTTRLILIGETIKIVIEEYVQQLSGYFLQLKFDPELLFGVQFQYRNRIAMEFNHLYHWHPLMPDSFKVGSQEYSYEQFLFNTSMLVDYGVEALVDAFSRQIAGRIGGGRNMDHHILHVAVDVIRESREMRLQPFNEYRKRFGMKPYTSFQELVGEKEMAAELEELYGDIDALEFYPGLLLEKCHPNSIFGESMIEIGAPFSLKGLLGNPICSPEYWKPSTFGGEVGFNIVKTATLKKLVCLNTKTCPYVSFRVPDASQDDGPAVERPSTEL
# Tests used:
# [1] = target: T1, Human COX-1 (Homo sapiens, UniProt P23219); experiment: Fast assay for COX-1 and COX-2 activity (PGE2 ELISA), COX-1; type: biochemical; details: Table II, pre-incubated 10 minutes at 25° C., arachidonic acid 10 μM, stopped after two minutes, pH 7.5
# T1 construct: A 2.0 kb fragment containing the coding region of either human or murine COX-1 or human or murine COX-2; made in house; host or cells: SF9 insect cells (baculovirus, transfer vector pVL1393)
# Experimental: (§1) Recombinant baculoviruses were isolated by transfecting 4 μg of baculovirus transfer vector DNA into SF9 insect cells (2×10^8) along with 200 ng of linearized baculovirus plasmid DNA by the calcium phosphate method. See M. D. Summers and G. E. Smith, A Manual of Methods for Baculovirus Vectors and Insect Cell Culture Procedures, Texas Agric. Exp. Station Bull. […] Recombinant viruses were purified by three rounds of plaque purification and high titer (10^7-10^8 pfu/mL) stocks of virus were prepared. For large scale production, SF9 insect cells were infected in 10 liter fermentors (0.5×10^6/mL) with the recombinant baculovirus stock such that the multiplicity of infection was 0.1. After 72 hours the cells were centrifuged and the cell pellet homogenized in Tris/Sucrose (50 mM: 25%, pH 8.0) containing 1% 3-[(3-cholamidopropyl)dimethylammonio]-1-propanesulfonate (CHAPS). The homogenate was centrifuged at 10,000×G for 30 minutes, and the resultant supernatant was stored at −80° C. before being assayed for COX activity.
# (§2) COX activity was assayed as PGE2 formed/μg protein/time using an ELISA to detect the prostaglandin released. […] The PGE2 formed was measured by standard ELISA technology (Cayman Chemical).
# [2] = target: T1, Human COX-1; experiment: Assay for COX-1 and COX-2 activity (PGE2 ELISA, recombinant enzyme), COX-1; type: biochemical; details: Table I; pre-incubated 10-20 minutes, arachidonic acid 10 μM, stopped after ten minutes, pH 8.0
# Experimental: as §1, §2
smiles,measurement,setting,value
"COc1ccc(-c2cc(C(F)(F)F)nn2-c2ccc(S(N)(=O)=O)c(F)c2)cc1 [Example 7, 2-Fluoro-4-[5-(4-methoxyphenyl)-3-(trifluoromethyl)-1H-pyrazol-1-yl]benzenesulfonamide]",IC50,[1],5.25 µM
same,IC50,[2],7.72 µM
